Source: US10501494B2, “Uses of peptides to treat brain injury and disease” (priority 2013, dated 2019)

Chains of the proteins cited; added tags and fusions are not shown.
UniProt P51681, whole entry: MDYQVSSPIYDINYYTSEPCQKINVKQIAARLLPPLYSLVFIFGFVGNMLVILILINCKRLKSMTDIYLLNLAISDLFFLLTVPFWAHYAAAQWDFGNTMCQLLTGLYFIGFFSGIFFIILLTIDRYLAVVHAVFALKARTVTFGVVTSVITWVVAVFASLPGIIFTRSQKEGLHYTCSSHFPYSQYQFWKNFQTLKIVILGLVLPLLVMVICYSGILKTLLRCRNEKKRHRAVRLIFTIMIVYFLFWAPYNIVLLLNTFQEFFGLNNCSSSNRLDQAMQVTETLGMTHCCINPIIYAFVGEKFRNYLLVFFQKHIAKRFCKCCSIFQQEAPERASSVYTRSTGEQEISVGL

Target: MIP-1β (CCL4)/CCR5 (Homo sapiens, UniProt P51681)
Settings: low (sub-pM) concentrations, MIP-1β 50 ng/mL, monocytes treated with GM-CSF for 48 hours

With `C[C@@H](N)C(=O)N[C@@H](CO)C(=O)N[C@H](C(=O)N[C@H](C(=O)N[C@H](C(=O)N[C@@H](CC(N)=O)C(=O)N[C@@H](Cc1ccc(O)cc1)C(=O)N[C@H](C(N)=O)[C@@H](C)O)[C@@H](C)O)[C@@H](C)O)[C@@H](C)O` [RAP-101, D-Ala1-STTTNYT-NH2] the “potency to block CCR5-mediated human monocyte chemotaxis” value was “comparable potency”.
